# Measured values: PubChem BioAssay AID1012 (Sanford-Burnham Center for Chemical Genomics, 2008)
# By UniProt entry, the sequences of proteins in these tests, tags left out.
# UniProt P05186, whole entry: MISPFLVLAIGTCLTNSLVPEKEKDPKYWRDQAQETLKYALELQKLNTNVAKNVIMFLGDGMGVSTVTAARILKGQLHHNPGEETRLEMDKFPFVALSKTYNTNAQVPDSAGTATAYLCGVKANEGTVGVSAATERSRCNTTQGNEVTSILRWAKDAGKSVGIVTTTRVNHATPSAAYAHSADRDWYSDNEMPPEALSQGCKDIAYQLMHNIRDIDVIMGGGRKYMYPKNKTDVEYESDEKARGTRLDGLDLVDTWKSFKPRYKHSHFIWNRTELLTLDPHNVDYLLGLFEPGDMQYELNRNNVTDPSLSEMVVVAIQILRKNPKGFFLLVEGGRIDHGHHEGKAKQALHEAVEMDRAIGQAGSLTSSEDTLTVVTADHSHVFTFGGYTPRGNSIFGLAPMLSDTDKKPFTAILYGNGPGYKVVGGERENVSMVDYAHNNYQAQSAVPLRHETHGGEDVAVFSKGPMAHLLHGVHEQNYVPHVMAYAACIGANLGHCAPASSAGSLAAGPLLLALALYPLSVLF
# This is a selection; strong and weak results do not stand in their true shares. Active and inactive are the calls of the source.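 The calls were made as follows: active = tissue-nonspecific alkaline phosphatase inhibition above about 50% at 20 µM in the single-dose screen (limit read from the data); inactive = the rest.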
# Biological target: Alkaline phosphatase, tissue-nonspecific isozyme (Homo sapiens) (UniProt P05186)
# Experiment: human TNAP enzyme inhibitors, primary screen, biochemical, luminescent, no phosphate acceptor, uHTS (AID 1012);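 also: 0% = DMSO negative control and 100% = EDTA positive control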
# Details: purified TNAP, CDP-star luminescence, 30 min; at 20 µM; active compounds read high
row,Structure (SMILES),inhibition
1,Cc1ccc(NP(C)(=O)Oc2ccccc2)c(C)c1 (stereo unspecified),inactive: -4.6%
